This is an account of results in ChEMBL document CHEMBL5550183, “Discovery of Novel 1-Phenylpiperidine Urea-Containing Derivatives Inhibiting β-Catenin/BCL9 Interaction and Exerting Antitumor Efficacy through the Activation of Antigen Presentation of cDC1 Cells” (J Med Chem, 2024).

Assay [1] concerns CT26. Kind of assay: Antitumor activity against mouse CT26 cells implanted in BALB/c mouse assessed as increase in tumor infiltration ratio of IFN-gamma to B+ CD8+ cells at 30 mg/kg, ip measured for 14 days by flow cytometry analysis. It is filed as functional, organism-based. The settings on record: time 14.0 day.
Assay [2] concerns CT26. Kind of assay: Antitumor activity against mouse CT26 cells implanted in BALB/c mouse assessed as upregulation of H2-Aa expression in tumor at 30 mg/kg, ip measured for 14 days by qPCR analysis. It is filed as functional, organism-based. As to conditions: time 14.0 day.
Assay [3] has as its system CT26. The assay is described as follows: Antitumor activity against mouse CT26 cells implanted in BALB/c mouse assessed as upregulation of psmb8 expression in tumor at 30 mg/kg, ip measured for 14 days by qPCR analysis. The settings on record: time 14.0 day. Type of assay: functional, organism-based.
A further assay relates to RKO. Kind of assay: Antiproliferative activity against Wnt-independent human RKO cells assessed as inhibition of cell growth incubated for 48 hrs by CCK-8 assay. It is filed as functional, cell-based.
A further assay has as its system MC-38. Kind of assay: Antiproliferative activity against mouse MC38 cells assessed as inhibition of cell growth incubated for 48 hrs by CCK-8 assay. Type of assay: functional, cell-based.
For assay [4], the system named is CT26. Kind of assay: Antitumor activity against mouse CT26 cells implanted in BALB/c mouse assessed as upregulation of IRF1 expression in tumor at 30 mg/kg, ip measured for 14 days by qPCR analysis. It is filed as functional, organism-based. As to conditions: time 14.0 day.
The test system of assay [5] is CT26. Kind of assay: Antitumor activity against mouse CT26 cells implanted in BALB/c mouse assessed as upregulation of STAT1 expression in tumor at 30 mg/kg, ip measured for 14 days by qPCR analysis. It is filed as functional, organism-based. The settings on record: time 14.0 day.
Assay [6] deals with CT26. Kind of assay: Antiproliferative activity against Wnt-dependent mouse CT26 cells assessed as inhibition of cell growth incubated for 48 hrs by CCK-8 assay. It is filed as functional, cell-based.
Assay [7] has as its system CT26. Kind of assay: Antitumor activity against mouse CT26 cells implanted in BALB/c mouse assessed as upregulation of Btk expression in tumor at 30 mg/kg, ip measured for 14 days by qPCR analysis. It is filed as functional, organism-based. As to conditions: time 14.0 day.
The test system of a further assay is HCT-116. The assay is described as follows: Antiproliferative activity against Wnt-dependent human HCT-116 cells assessed as inhibition of cell growth incubated for 48 hrs by CCK-8 assay. Type of assay: functional, cell-based.
Another assay deals with A549. Kind of assay: Antiproliferative activity against Wnt-independent human A549 cells assessed as inhibition of cell growth incubated for 48 hrs by CCK-8 assay. It is filed as functional, cell-based.
Another assay deals with HEK293. Kind of assay: Antiproliferative activity against Wnt-independent human HEK293 cells assessed as inhibition of cell growth incubated for 48 hrs by CCK-8 assay. It is filed as functional, cell-based.
In a further assay the test system is SW480. The assay is described as follows: Antiproliferative activity against Wnt-dependent human SW480 cells assessed as inhibition of cell growth incubated for 48 hrs by CCK-8 assay. Type of assay: functional, cell-based.
In a further assay the test system is B16. The assay is described as follows: Antiproliferative activity against mouse B16 cells assessed as inhibition of cell growth incubated for 48 hrs by CCK-8 assay. Type of assay: functional, cell-based.

SMILES strings stand for the structures. Activity calls are given as the source filed them. The rule behind the calls is not given here.

For `CC(C)(Oc1cccc(N2CCC[C@@H](NC(=O)N(Cc3ccc(-c4cn[nH]c4)cc3)C3CC3)C2)c1)C(=O)NCCCN`, the result in the assay on CT26 [1], in the assay with CT26 [2], in the assay with CT26 [3], with MC-38, in the assay with CT26 [4] and in the assay on CT26 [5] was Active. The outcome with CT26 [6], with CT26 [7], in the assay with HCT-116, in the assay with SW480 and in the assay on B16 was Active. For the same compound, the result with RKO, with A549 and in the assay with HEK293 was inactive.
